The test deals with HepG2 cells. In words: HepG2 MTT cytotoxicity assay. To be noted: for Selectivity Index (SI) Adult worms: HepG2 CC50 versus adult worm EC50; for Selectivity Index (SI) Somula: HepG2 CC50 versus schistosomula EC50. For orientation: Formazan colour is commonly taken as a measure of viable cells.

From paper PMC8626775, “Anti-schistosomal activities of quinoxaline-containing compounds: From hit identification to lead optimisation” (European Journal of Medicinal Chemistry, 2021) come the findings set out here.

Take `O=[N+]([O-])c1ccc2nc(Nc3ccc(Cl)c(Cl)c3)c(Nc3ccc(Cl)c(Cl)c3)nc2c1` [Compound 22, N^2, N^3-bis(3,4-dichlorophenyl)-6-nitroquinoxaline-2,3-diamine]: the “Selectivity Index (SI) Adult worms” value is 3.11 and the “Selectivity Index (SI) Somula” value was determined as 0.59.

In the case of `O=[N+]([O-])c1ccc2nc(Nc3ccc(Cl)cc3)c(Nc3ccc(Cl)cc3)nc2c1` [Compound 26, N^2, N^3-bis(4-chlorophenyl)-6-nitroquinoxaline-2,3-diamine], the “Selectivity Index (SI) Adult worms” value came out at 6.33 and the “Selectivity Index (SI) Somula” value is recorded as 0.32.

As to `O=[N+]([O-])c1ccc2nc(Nc3ccc(C(F)(F)F)cc3)c(Nc3ccc(C(F)(F)F)cc3)nc2c1` [Compound 31, 6-nitro-N2, N3-bis(4-(trifluoromethyl)phenyl)quinoxaline-2,3-diamine], the “Selectivity Index (SI) Adult worms” value is reported as 10.21 and the “Selectivity Index (SI) Somula” value was 0.26.

As to `COc1ccc(Nc2nc3ccc([N+](=O)[O-])cc3nc2Nc2ccc(OC)c(C(F)(F)F)c2)cc1C(F)(F)F` [Compound 35, N2, N3-bis(4-methoxy-3-(trifluoromethyl)phenyl)-6-nitroquinoxaline-2,3-diamine], the “Selectivity Index (SI) Adult worms” value was determined as 9.73 and the “Selectivity Index (SI) Somula” value is 0.65.
